Source: patent US8114961B2

Molecular target: murine laminin-1 (NEBiolabs) (murine) (UniProt P19137)
Assay: ELISA: plates precoated with murine laminin-1, increasing LamR concentrations, Penta-His HRP detection, one-site binding hyperbola

| Substance | Kd |
| --- | --- |
| LamR-295 (full-length human laminin receptor having residues 1-295) (from UniProt P08865) | 700 nM |
| LamR-220 (residues 1-220 of human 37 kDa LamR protein) (receptor) | 1700 nM |
